From patent US9751885B2, “Cyclopropanamine compound and use thereof” (Takeda Pharmaceutical Company Limited, priority 2012, dated 2017)
Where a name gives a salt, the structure may show the parent alone.

Sequences of proteins named here, by UniProt entry; tags and fusion partners are left off.
UniProt P21397, whole entry: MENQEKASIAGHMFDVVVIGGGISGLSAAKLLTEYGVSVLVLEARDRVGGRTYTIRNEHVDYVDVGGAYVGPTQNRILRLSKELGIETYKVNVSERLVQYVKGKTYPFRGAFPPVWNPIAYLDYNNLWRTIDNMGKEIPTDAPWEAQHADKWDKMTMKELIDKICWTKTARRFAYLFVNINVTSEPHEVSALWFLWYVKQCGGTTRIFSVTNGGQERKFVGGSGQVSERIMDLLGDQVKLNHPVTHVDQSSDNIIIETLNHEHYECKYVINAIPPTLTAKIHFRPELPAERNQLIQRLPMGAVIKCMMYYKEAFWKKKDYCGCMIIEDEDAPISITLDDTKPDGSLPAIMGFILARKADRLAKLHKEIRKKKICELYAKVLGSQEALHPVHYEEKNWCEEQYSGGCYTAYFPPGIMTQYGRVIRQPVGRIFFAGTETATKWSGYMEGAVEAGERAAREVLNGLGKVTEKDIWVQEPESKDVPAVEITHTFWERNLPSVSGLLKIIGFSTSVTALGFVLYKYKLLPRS
UniProt P27338, whole entry: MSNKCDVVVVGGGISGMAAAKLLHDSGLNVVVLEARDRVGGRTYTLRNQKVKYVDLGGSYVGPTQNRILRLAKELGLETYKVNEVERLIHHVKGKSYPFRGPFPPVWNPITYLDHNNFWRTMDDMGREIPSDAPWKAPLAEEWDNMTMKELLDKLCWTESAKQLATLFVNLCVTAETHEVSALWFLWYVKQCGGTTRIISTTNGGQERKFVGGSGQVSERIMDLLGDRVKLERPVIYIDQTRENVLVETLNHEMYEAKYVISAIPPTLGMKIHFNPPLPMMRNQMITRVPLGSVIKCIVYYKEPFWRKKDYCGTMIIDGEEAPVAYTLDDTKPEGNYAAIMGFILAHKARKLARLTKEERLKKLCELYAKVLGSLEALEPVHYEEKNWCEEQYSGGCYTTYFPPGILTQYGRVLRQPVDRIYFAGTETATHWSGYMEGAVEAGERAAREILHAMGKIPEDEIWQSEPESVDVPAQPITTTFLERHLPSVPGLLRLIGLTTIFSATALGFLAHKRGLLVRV

Columns and labels:
MAO-A enzyme = MAO-A enzyme (Homo sapiens (Human), UniProt P21397); assay: Measurement of MAO-A inhibitory activity (MAO-Glo Assay); type: biochemical
MAO-B enzyme = MAO-B enzyme (Homo sapiens (Human), UniProt P27338); assay: Measurement of MAO-B inhibitory activity (MAO-Glo Assay); details: read-out: MAO-B IC50 value;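 further: luminescence read-out, compound preincubated 10 min with enzyme then reacted 60 min at room temperature, inhibition relative to enzyme reaction without compound, blank lacking enzyme and compound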

Row | Structure (SMILES) | IC50 (MAO-A enzyme) [µM] | IC50 (MAO-B enzyme) [µM]
1 | N[C@@H]1C[C@H]1c1ccc(C(=O)Nc2cn[nH]c2)cc1 (relative stereo) [Example 5, 4-(trans-2-aminocyclopropyl)-N-(1H-pyrazol-4-yl)benzamide dihydrochloride] | 2.9 | > 10
2 | N[C@@H]1C[C@H]1c1cccc(C(=O)Nc2ccccc2)c1 (relative stereo) [Example 11, 3-(trans-2-aminocyclopropyl)-N-phenylbenzamide hydrochloride] | 5.9 | > 10
3 | N[C@@H]1C[C@H]1c1cccc(C(=O)NCc2ccccc2)c1 (relative stereo) [Example 12, 3-(trans-2-aminocyclopropyl)-N-benzylbenzamide hydrochloride] | 4 | > 10
4 | N[C@@H]1C[C@H]1c1cccc(C(=O)Nc2ccc(-c3ncccn3)cc2)c1 (relative stereo) [Example 54, 3-(trans-2-aminocyclopropyl)-N-(4-(pyrimidin-2-yl)phenyl)benzamide dihydrochloride] | > 10 | 3.7
5 | Cn1cc(NC(=O)c2cccc([C@@H]3C[C@H]3N)c2)cn1 (relative stereo) [Example 55, 3-(trans-2-aminocyclopropyl)-N-(1-methyl-1H-pyrazol-4-yl)benzamide dihydrochloride] | > 10 | > 10
6 | Cn1cc(NC(=O)c2cccc([C@@H]3C[C@H]3NCC3CC3)c2)cn1 (relative stereo) [Example 59, 3-(trans-2-((cyclopropylmethyl)amino)cyclopropyl)-N-(1-methyl-1H-pyrazol-4-yl)benzamide dihydrochloride] | > 10 | > 10
7 | O=C(NC1CCCC1)c1cccc([C@@H]2C[C@H]2NCC2CC2)c1 (relative stereo) [Example 60, N-cyclopentyl-3-(trans-2-((cyclopropylmethyl)amino)cyclopropyl)benzamide hydrochloride] | > 10 | > 10
8 | O=C(c1cccc([C@@H]2C[C@H]2NCC2CC2)c1)N1CCCC1 (relative stereo) [Example 61, (3-(trans-2-((cyclopropylmethyl)amino)cyclopropyl)phenyl)(pyrrolidin-1-yl)methanone hydrochloride] | > 10 | > 10
9 | N[C@@H]1C[C@H]1c1cccc(C(=O)Nc2cnn(CC3CC3)c2)c1 (relative stereo) [Example 63, 3-(trans-2-aminocyclopropyl)-N-(1-(cyclopropylmethyl)-1H-pyrazol-4-yl)benzamide dihydrochloride] | > 10 | > 10
10 | CC(C)(C)n1cc(NC(=O)c2cccc([C@@H]3C[C@H]3N)c2)cn1 (relative stereo) [Example 65, 3-(trans-2-aminocyclopropyl)-N-(1-tert-butyl-1H-pyrazol-4-yl)benzamide dihydrochloride] | > 10 | > 10
11 | CN(C(=O)c1cccc([C@@H]2C[C@H]2N)c1)c1ccccc1 (relative stereo) [Example 68, 3-(trans-2-aminocyclopropyl)-N-methyl-N-phenylbenzamide hydrochloride] | 0.49 | 6.1
12 | N[C@@H]1C[C@H]1c1cccc(C(=O)Nc2cccc(-c3ncccn3)c2)c1 (relative stereo) [Example 69, 3-(trans-2-aminocyclopropyl)-N-(3-(pyrimidin-2-yl)phenyl)benzamide dihydrochloride] | 6 | 2.7
13 | N[C@@H]1C[C@H]1c1cccc(C(=O)Nc2cnn(-c3ccc(F)cc3)c2)c1 (relative stereo) [Example 71, 3-(trans-2-aminocyclopropyl)-N-(1-(4-fluorophenyl)-1H-pyrazol-4-yl)benzamide dihydrochloride] | 10 | 0.39
14 | N[C@@H]1C[C@H]1c1cccc(C(=O)Nc2ccc(F)cc2)c1 (relative stereo) [Example 72, 3-(trans-2-aminocyclopropyl)-N-(4-fluorophenyl)benzamide hydrochloride] | > 10 | 5.7
15 | CCn1cc(NC(=O)c2cccc([C@@H]3C[C@H]3N)c2)cn1 (relative stereo) [Example 74, 3-(trans-2-aminocyclopropyl)-N-(1-ethyl-1H-pyrazol-4-yl)benzamide dihydrochloride] | > 10 | > 10
16 | N[C@@H]1C[C@H]1c1ccc(F)c(C(=O)NC2CCCC2)c1 (relative stereo) [Example 75, 5-(trans-2-aminocyclopropyl)-N-cyclopentyl-2-fluorobenzamide hydrochloride] | 8.4 | > 10

Row | Structure (SMILES) | IC50 (MAO-A enzyme) [µM] | IC50 (MAO-B enzyme) [µM]
17 | COc1ccc([C@@H]2C[C@H]2N)cc1C(=O)NC1CCCC1 (relative stereo) [Example 76, 5-(trans-2-aminocyclopropyl)-N-cyclopentyl-2-methoxybenzamide hydrochloride] | > 10 | > 10
18 | CC(C)(C)n1cc(NC(=O)c2cccc([C@@H]3C[C@H]3NCC3CC3)c2)cn1 (relative stereo) [Example 78, N-(1-tert-butyl-1H-pyrazol-4-yl)-3-(trans-2-((cyclopropylmethyl)amino)cyclopropyl)benzamide dihydrochloride] | > 10 | > 10
19 | O=C(NC1CCOCC1)c1cccc([C@@H]2C[C@H]2NCC2CC2)c1 (relative stereo) [Example 100, 3-(trans-2-((cyclopropylmethyl)amino)cyclopropyl)-N-(tetrahydro-2H-pyran-4-yl)benzamide hydrochloride] | > 10 | –
20 | O=C(NC1CCN(CC(F)(F)F)CC1)c1cccc([C@@H]2C[C@H]2NCC2CC2)c1 (relative stereo) [Example 108, 3-(trans-2-((cyclopropylmethyl)amino)cyclopropyl)-N-(1-(2,2,2-trifluoroethyl)piperidin-4-yl)benzamide dihydrochloride] | > 10 | –
21 | Cc1nnc(NC(=O)c2cc([C@@H]3C[C@H]3NCC3CC3)ccc2F)s1 (relative stereo) [Example 110, 5-(trans-2-((cyclopropylmethyl)amino)cyclopropyl)-2-fluoro-N-(5-methyl-1,3,4-thiadiazol-2-yl)benzamide dihydrochloride] | – | > 10
22 | O=C(NC1CCOCC1)c1cc([C@@H]2C[C@H]2NCC2CC2)ccc1F (relative stereo) [Example 111, 5-(trans-2-((cyclopropylmethyl)amino)cyclopropyl)-2-fluoro-N-(tetrahydro-2H-pyran-4-yl)benzamide hydrochloride] | > 10 | –
23 | Cc1nnc(NC(=O)c2cccc([C@@H]3C[C@H]3NCC3CCOCC3)c2)s1 (relative stereo) [Example 112, N-(5-methyl-1,3,4-thiadiazol-2-yl)-3-(trans-2-((tetrahydro-2H-pyran-4-ylmethyl)amino)cyclopropyl)benzamide dihydrochloride] | > 10 | –
24 | CC(C)(C)NC(=O)c1cccc([C@@H]2C[C@H]2NCC2CC2)c1 (relative stereo) [Example 114, N-tert-butyl-3-(trans-2-((cyclopropylmethyl)amino)cyclopropyl)benzamide trifluoroacetate] | – | > 10
25 | Cn1cc(NC(=O)c2cccc([C@@H]3C[C@H]3NC3CCN(CC(F)(F)F)CC3)c2)cn1 (relative stereo) [Example 171, N-(1-methyl-1H-pyrazol-4-yl)-3-(trans-2-((1-(2,2,2-trifluoroethyl)piperidin-4-yl)amino)cyclopropyl)benzamide trihydrochloride] | > 10 | –
26 | Cn1cc(NC(=O)c2cccc([C@@H]3C[C@H]3NC3CCCC3)c2)cn1 (relative stereo) [Example 172, 3-(trans-2-(cyclopentylamino)cyclopropyl)-N-(1-methyl-1H-pyrazol-4-yl)benzamide dihydrochloride] | > 10 | –
27 | Cc1nnc(NC(=O)c2ccc(C)c([C@@H]3C[C@H]3NC3CCOCC3)c2)s1 (relative stereo) [Example 184, 4-methyl-N-(5-methyl-1,3,4-thiadiazol-2-yl)-3-(trans-2-(tetrahydro-2H-pyran-4-ylamino)cyclopropyl)benzamide dihydrochloride] | – | > 10
28 | Cn1cc(NC(=O)c2cc([C@@H]3C[C@H]3NC3CCC(F)(F)CC3)ccc2F)cn1 (relative stereo) [Example 186, 5-(trans-2-((4,4-difluorocyclohexyl)amino)cyclopropyl)-2-fluoro-N-(1-methyl-1H-pyrazol-4-yl)benzamide hydrochloride] | – | > 10
29 | Cc1cc(NC(=O)c2cccc([C@@H]3C[C@H]3NC3CCC(F)(F)CC3)c2)n(C)n1 (relative stereo) [Example 215, 3-(trans-2-((4,4-difluorocyclohexyl)amino)cyclopropyl)-N-(1,3-dimethyl-1H-pyrazol-5-yl)benzamide dihydrochloride] | – | > 10
30 | COc1ccc([C@@H]2C[C@H]2NC2CCOCC2)cc1C(=O)Nc1nnc(C)s1 (relative stereo) [Example 221, 2-methoxy-N-(5-methyl-1,3,4-thiadiazol-2-yl)-5-(trans-2-(tetrahydro-2H-pyran-4-ylamino)cyclopropyl)benzamide] | – | > 10
31 | NC1CC1c1cccc(C(=O)NC2CCOCC2)c1 (stereo not drawn) [Example 245, 3-(trans-2-aminocyclopropyl)-N-(tetrahydro-2H-pyran-4-yl)benzamide hydrochloride [optical isomer, compound derived from methyl 3-(trans-2-((tert-butoxycarbonyl)amino)cyclopropyl)benzoate (optical isomer, retention time long)]] | – | > 10
32 | NC1CC1c1cccc(C(=O)NC2CCN(CC(F)(F)F)CC2)c1 (stereo not drawn) [Example 251, 3-(trans-2-aminocyclopropyl)-N-(1-(2,2,2-trifluoroethyl)piperidin-4-yl)benzamide dihydrochloride [optical isomer, compound derived from methyl 3-(trans-2-((tert-butoxycarbonyl)amino)cyclopropyl)benzoate (optical isomer, retention time long)]] | – | > 10
